Laboratory results reported in PubChem BioAssay (NCI).
Several values for one entry are separate records, joined by “and”; a condition that tells them apart may be missing. Identical values can stand only once. The list shows a part of the results, in another mix than the full data.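 A percent growth of 40 corresponds to 60% growth inhibition; 0 means no net growth; -100 means all cells died. Active threshold: below 10.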 Activity calls are given as the source filed them.

Assays:
Experiment in all cases: NCI-60 one-dose screen, 48 h (100 = growth as untreated, 0 = no growth, -100 = all killed)
Conditions in all cases: 10 µM unless noted
NCI-H23 lung = system: NCI-H23 lung
NCI-H226 lung = system: NCI-H226 lung
NCI-H322M lung = system: NCI-H322M lung
HOP-62 NSCLC = system: HOP-62 NSCLC
NCI-H460 lung = system: NCI-H460 lung
HOP-92 NSCLC = system: HOP-92 NSCLC
NCI-H522 lung = system: NCI-H522 lung
A549/ATCC NSCLC = system: A549/ATCC NSCLC
786-0 renal = system: 786-0 renal
COLO 205 colon = system: COLO 205 colon
DU-145 prostate = system: DU-145 prostate
K-562 leukemia = system: K-562 leukemia
MALME-3M melanoma = system: MALME-3M melanoma
MDA-MB-231 breast = system: MDA-MB-231 breast
RXF 393 renal = system: RXF 393 renal
SF-268 CNS = system: SF-268 CNS
SF-295 CNS = system: SF-295 CNS
SF-539 CNS = system: SF-539 CNS
UACC-257 melanoma = system: UACC-257 melanoma
M14 melanoma = system: M14 melanoma

Measured: growth

COC(=O)C1=C(C)O[P@](=O)(OC)CCC1c1ccccc1 (some centres undefined)
inactive: NCI-H23 lung 100% | NCI-H226 lung 99.2% | NCI-H322M lung 106% | HOP-62 NSCLC 96.7% | NCI-H460 lung 105% | HOP-92 NSCLC 70.7% | NCI-H522 lung 98% | A549/ATCC NSCLC 101% | 786-0 renal 98.1% | COLO 205 colon 108% | DU-145 prostate 115% | K-562 leukemia 107% | MALME-3M melanoma 94.3% | MDA-MB-231 breast 114% | RXF 393 renal 105% | SF-268 CNS 114% | SF-295 CNS 102% | SF-539 CNS 99.7% | UACC-257 melanoma 100% | M14 melanoma 111%

COP(OC)c1ccc(C)cc1
inactive: NCI-H23 lung 112% | NCI-H226 lung 111% | NCI-H322M lung 120% | HOP-62 NSCLC 113% | NCI-H460 lung 109% | HOP-92 NSCLC 93.4% | NCI-H522 lung 93.8% | A549/ATCC NSCLC 99.2% | 786-0 renal 104% | COLO 205 colon 127% | DU-145 prostate 106% | K-562 leukemia 97.5% | MALME-3M melanoma 99.4% | MDA-MB-231 breast 106% | RXF 393 renal 169% | SF-268 CNS 100% | SF-295 CNS 116% | SF-539 CNS 112% | UACC-257 melanoma 112% | M14 melanoma 107%

ClCCN(CCc1ccccc1)Cc1ccccc1
inactive: NCI-H23 lung 97.5% | NCI-H226 lung 83.9% | NCI-H322M lung 96.1% | HOP-62 NSCLC 106% | NCI-H460 lung 108% | HOP-92 NSCLC 107% | NCI-H522 lung 77.6% | A549/ATCC NSCLC 91.2% | 786-0 renal 99.7% | COLO 205 colon 113% | DU-145 prostate 109% | K-562 leukemia 89.9% | MALME-3M melanoma 105% | MDA-MB-231 breast 112% | RXF 393 renal 105% | SF-268 CNS 101% | SF-295 CNS 101% | SF-539 CNS 95.1% | UACC-257 melanoma 90.7% | M14 melanoma 103%

CCN(CCCl)Cc1cccc2ccccc12
inactive: NCI-H23 lung 104% | NCI-H226 lung 102% | NCI-H322M lung 96.1% | HOP-62 NSCLC 101% | NCI-H460 lung 99.4% | HOP-92 NSCLC 77.5% | NCI-H522 lung 85.3% | A549/ATCC NSCLC 101% | 786-0 renal 101% | COLO 205 colon 104% | DU-145 prostate 113% | K-562 leukemia 97.9% | MALME-3M melanoma 107% | MDA-MB-231 breast 108% | RXF 393 renal 118% | SF-268 CNS 101% | SF-295 CNS 109% | SF-539 CNS 99.5% | UACC-257 melanoma 111% | M14 melanoma 108%

O=[N+]([O-])c1ccc(Nc2ccc(Oc3ccc([N+](=O)[O-])cc3[N+](=O)[O-])cc2)c([N+](=O)[O-])c1
inactive: NCI-H23 lung 75.2% | NCI-H226 lung 83.6% | NCI-H322M lung 97.5% | HOP-62 NSCLC 101% | NCI-H460 lung 94.4% | HOP-92 NSCLC 72.3% | NCI-H522 lung 47.9% | A549/ATCC NSCLC 83.4% | 786-0 renal 81% | COLO 205 colon 114% | DU-145 prostate 97.9% | K-562 leukemia 39.1% | MALME-3M melanoma 71.7% | MDA-MB-231 breast 79.8% | RXF 393 renal 54.2% | SF-268 CNS 85.7% | SF-295 CNS 96.9% | SF-539 CNS 82.2% | UACC-257 melanoma 94.7% | M14 melanoma 80.9%

Cn1c(COc2ccc([N+](=O)[O-])cc2[N+](=O)[O-])cnc1[N+](=O)[O-]
inactive: NCI-H23 lung 90.5% | NCI-H226 lung 91.5% | NCI-H322M lung 106% | HOP-62 NSCLC 90.3% | NCI-H460 lung 100% | HOP-92 NSCLC 102% | NCI-H522 lung 86.1% | A549/ATCC NSCLC 98.7% | 786-0 renal 100% | COLO 205 colon 102% | DU-145 prostate 107% | K-562 leukemia 91.5% | MALME-3M melanoma 106% | MDA-MB-231 breast 105% | RXF 393 renal 106% | SF-268 CNS 96.6% | SF-295 CNS 98% | SF-539 CNS 97.5% | UACC-257 melanoma 106% | M14 melanoma 94.9%

CC(=O)Nc1ccc([As](=O)(O)O)cc1
inactive: NCI-H23 lung 102% | NCI-H226 lung 84.3% | NCI-H322M lung 99.9% | HOP-62 NSCLC 93.9% | NCI-H460 lung 113% | HOP-92 NSCLC 104% | NCI-H522 lung 92.5% | A549/ATCC NSCLC 97.8% | 786-0 renal 110% | COLO 205 colon 124% | DU-145 prostate 122% | K-562 leukemia 109% | MALME-3M melanoma 97.5% | MDA-MB-231 breast 93% | RXF 393 renal 109% | SF-268 CNS 104% | SF-295 CNS 97.6% | SF-539 CNS 98.4% | UACC-257 melanoma 96.8% | M14 melanoma 94.1%

O=[As](O)(c1ccccc1)c1ccc(O)cc1
inactive: NCI-H23 lung 95.3% | NCI-H226 lung 106% | NCI-H322M lung 129% | HOP-62 NSCLC 88.1% | NCI-H460 lung 95.5% | HOP-92 NSCLC 90.9% | NCI-H522 lung 84% | A549/ATCC NSCLC 104% | 786-0 renal 96.8% | COLO 205 colon 125% | DU-145 prostate 111% | K-562 leukemia 101% | MALME-3M melanoma 108% | MDA-MB-231 breast 108% | RXF 393 renal 67.2% | SF-268 CNS 110% | SF-295 CNS 101% | SF-539 CNS 88% | UACC-257 melanoma 52.7% | M14 melanoma 99.4%

C[As](=O)(O)c1cccc(C(=O)O)c1
inactive: NCI-H23 lung 98.8% | NCI-H226 lung 98.9% | NCI-H322M lung 105% | HOP-62 NSCLC 95% | NCI-H460 lung 107% | HOP-92 NSCLC 81.6% | NCI-H522 lung 93% | A549/ATCC NSCLC 99.4% | 786-0 renal 96.4% | COLO 205 colon 110% | DU-145 prostate 114% | K-562 leukemia 107% | MALME-3M melanoma 102% | MDA-MB-231 breast 109% | RXF 393 renal 95.5% | SF-268 CNS 107% | SF-295 CNS 105% | SF-539 CNS 101% | UACC-257 melanoma 98.1% | M14 melanoma 104%

CCCN(CCCl)C1c2ccccc2-c2ccccc21
inactive: NCI-H23 lung 99.1% | NCI-H226 lung 97.4% | NCI-H322M lung 96.9% | HOP-62 NSCLC 88.5% | NCI-H460 lung 109% | HOP-92 NSCLC 94.3% | NCI-H522 lung 92.1% | A549/ATCC NSCLC 92.2% | 786-0 renal 94.7% | COLO 205 colon 104% | DU-145 prostate 105% | K-562 leukemia 106% | MALME-3M melanoma 101% | MDA-MB-231 breast 98.1% | RXF 393 renal 122% | SF-268 CNS 100% | SF-295 CNS 94.8% | SF-539 CNS 98.1% | UACC-257 melanoma 104% | M14 melanoma 94.4%

O=[N+]([O-])N=C1NCCN1
inactive: NCI-H23 lung 106% and 96.5% | NCI-H226 lung 102% and 94.3% | NCI-H322M lung 127% and 77.3% | HOP-62 NSCLC 106% and 87.8% | NCI-H460 lung 108% and 105% | HOP-92 NSCLC 84.7% and 80.2% | NCI-H522 lung 100% and 88.7% | A549/ATCC NSCLC 102% and 98.3% | 786-0 renal 109% and 108% | COLO 205 colon 106% and 107% | DU-145 prostate 102% and 104% | K-562 leukemia 89.3% and 112% | MALME-3M melanoma 126% and 64.3% | MDA-MB-231 breast 120% and 100% | RXF 393 renal 102% and 106% | SF-268 CNS 100% and 112% | SF-295 CNS 105% and 114% | SF-539 CNS 112% and 95.7% | UACC-257 melanoma 103% | M14 melanoma 109% and 101%

CN(CCCl)/N=N/c1nc2nc[nH]c(=O)c2[nH]1
inactive: NCI-H23 lung 100% | NCI-H226 lung 118% | NCI-H322M lung 92.1% | HOP-62 NSCLC 79.4% | NCI-H460 lung 113% | HOP-92 NSCLC 105% | NCI-H522 lung 87.2% | A549/ATCC NSCLC 91.9% | 786-0 renal 91.7% | COLO 205 colon 114% | DU-145 prostate 105% | K-562 leukemia 99.9% | MALME-3M melanoma 104% | MDA-MB-231 breast 110% | RXF 393 renal 115% | SF-268 CNS 99.4% | SF-295 CNS 93.9% | SF-539 CNS 92.3% | UACC-257 melanoma 103% | M14 melanoma 106%

Nc1ccccc1[As](=O)(O)c1ccccc1
inactive: NCI-H23 lung 100% | NCI-H226 lung 97.6% | NCI-H322M lung 111% | HOP-62 NSCLC 113% | NCI-H460 lung 106% | HOP-92 NSCLC 72.4% | NCI-H522 lung 57.4% | A549/ATCC NSCLC 102% | 786-0 renal 107% | COLO 205 colon 107% | DU-145 prostate 111% | K-562 leukemia 125% | MALME-3M melanoma 95.8% | MDA-MB-231 breast 105% | RXF 393 renal 100% | SF-268 CNS 114% | SF-295 CNS 105% | SF-539 CNS 104% | UACC-257 melanoma 89.9% | M14 melanoma 98.9%

CCCCOP(=O)(OCCCC)N1CCCC1C(=O)O (centres undefined)
inactive: NCI-H23 lung 99.5% | NCI-H226 lung 95.3% | NCI-H322M lung 110% | HOP-62 NSCLC 80.5% | NCI-H460 lung 100% | HOP-92 NSCLC 88.9% | NCI-H522 lung 85.9% | A549/ATCC NSCLC 85.3% | 786-0 renal 99.5% | COLO 205 colon 96.5% | DU-145 prostate 113% | K-562 leukemia 103% | MALME-3M melanoma 108% | MDA-MB-231 breast 102% | RXF 393 renal 102% | SF-268 CNS 100% | SF-295 CNS 97% | SF-539 CNS 99.2% | UACC-257 melanoma 95% | M14 melanoma 99.6%

Cc1ccc(SP(=O)(CCl)N(CCCl)CCCl)cc1 (centres undefined)
inactive: NCI-H23 lung 104% | NCI-H226 lung 97.5% | NCI-H322M lung 105% | HOP-62 NSCLC 111% | NCI-H460 lung 103% | HOP-92 NSCLC 72.3% | NCI-H522 lung 71.8% | A549/ATCC NSCLC 92.7% | 786-0 renal 100% | COLO 205 colon 111% | DU-145 prostate 109% | K-562 leukemia 103% | MALME-3M melanoma 107% | MDA-MB-231 breast 105% | RXF 393 renal 94.3% | SF-268 CNS 101% | SF-539 CNS 96.3% | UACC-257 melanoma 94.4% | M14 melanoma 105%
